Reference: patent US7399460B2, “Metal complexes derivatized with folate for use in diagnostic and therapeutic applications” (Bracco International B.V., priority 1998, dated 2008)

Test system: tumor
Conditions: radioimaging, folate-deprived tumor-bearing mice

In the case of “99m-Technetium complex of 12-(N-Pteroyl-α-L-glutamyl)-3,3,9,9-tetramethyl-5-oxa-4,8-diaza-2,10-dodecanedione dioxime [^99mTc-Oxa-α-folate]”, the “localization in tumor and kidneys” value was “good localization” and the uptake by liver was “negligible”.
